Target: 11-beta-hydroxysteroid dehydrogenase 1 (Homo sapiens, UniProt P28845)
Assay: Inhibition of 11beta-HSD1 in human microsomes by HTRF cortisol assay
Parameters: species or system Microsome

Protein sequences, listed by entry. Tags and fused reporters are not part of them. Lines headed by an entry give the natural chain unless they say otherwise; changes in a name come on top.
UniProt P28845: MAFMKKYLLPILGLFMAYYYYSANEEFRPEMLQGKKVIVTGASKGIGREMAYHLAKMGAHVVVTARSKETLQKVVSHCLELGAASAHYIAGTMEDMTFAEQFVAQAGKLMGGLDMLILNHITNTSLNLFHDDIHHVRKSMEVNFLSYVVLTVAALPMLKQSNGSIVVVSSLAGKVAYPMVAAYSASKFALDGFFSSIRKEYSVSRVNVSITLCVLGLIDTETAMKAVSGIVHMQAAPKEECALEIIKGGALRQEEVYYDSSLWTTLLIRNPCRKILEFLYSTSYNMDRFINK

IC50: 0.5 µM
SMILES: CC1(C)[C@@H](OC(=O)CCC(=O)O)CC[C@]2(C)[C@H]3C(=O)C=C4[C@@H]5C[C@@](C)(C(=O)O)CC[C@]5(C)CC[C@@]4(C)[C@]3(C)CC[C@@H]12 [CARBENOXOLONE]

Reference: ChEMBL document CHEMBL1159080, “Discovery of cyclicsulfonamide derivatives as 11 beta-hydroxysteroid dehydrogenase 1 inhibitors” (Bioorg Med Chem Lett, 2010)
